Among the data in publication PMC10537403 (Viruses, 2023) are IC50 values, retold here.

Where two headings read alike, the source gives them in different places.

The test system of assay [1] is caprine herpesvirus type 1 (CpHV-1, reference Swiss strain E/CH). Particulars: read-out: IC50 against CpHV-1, virus pre-treatment; MDBK cells, virus pre-incubated with peptide 1 h, plaque assay 72 h.
The test system of assay [2] is bovine herpesvirus type 1 (BoHV-1, Cooper strain). The following applies: read-out: IC50 against BoHV-1, virus pre-treatment; MDBK cells, virus pre-incubated with peptide 1 h, plaque assay 72 h.
Assay [3] concerns canine distemper virus (CDV, strain Onderstepoort). The following applies: VERO/hSLAM cells, plaque assay 72 h.
The subject of assay [4] is bovine viral diahrrea virus (BVDV, strain NADL ATCC VR-534). Particulars: MDBK cells, plaque assay.
[5] abbreviates: read-out: IC50 against CDV, co-treatment, peptide and virus (MOI 0.01) added simultaneously 1 h.
Setting [6] is: read-out: IC50 against CDV, virus pre-treatment, peptide incubated with virus (MOI 0.1) 1 h at 37 °C, then added on cells.
Where [7] appears, read: read-out: IC50 against BVDV, co-treatment, peptide and virus added simultaneously.
Setting [8] is: read-out: IC50 against BVDV, virus pre-treatment, virus pre-incubated with peptide.

One may read the IC50 as the point on the concentration scale where inhibition reaches its midpoint. As for `CC[C@H](C)[C@H](NC(=O)[C@H](C)N)C(=O)NCC(=O)N[C@@H](CO)C(=O)N[C@H](C(=O)N[C@@H](CC(C)C)C(=O)NCC(=O)N[C@@H](C)C(=O)N[C@@H](CC(C)C)C(=O)N[C@@H](C)C(=O)N[C@@H](CCCCN)C(=O)NCC(=O)N[C@@H](CC(C)C)C(=O)N1CCC[C@H]1C(=O)N[C@H](C(=O)N[C@@H](CC(C)C)C(=O)N[C@H](C(=O)N[C@@H](CO)C(=O)N[C@@H](Cc1c[nH]c2ccccc12)C(=O)N[C@H](C(=O)N[C@@H](CCCCN)C(=O)N[C@@H](CC(N)=O)C(=O)N[C@@H](CCCNC(=N)N)C(N)=O)[C@@H](C)CC)[C@@H](C)CC)[C@@H](C)O)[C@@H](C)CC` [AR-23], the IC50 in assay [1] amounted to 1.56 µM; in assay [2] it was 1.56 µM; in assay [3] (setting [5]), 12.5 µM; in assay [3] (setting [6]) it was 6.25 µM; in assay [4] (setting [7]) it was 12.5 µM; in assay [4] (setting [8]) it was 6.25 µM.
Consider `CC[C@H](C)[C@H](N)C(=O)N[C@@H](Cc1ccccc1)C(=O)NCC(=O)N[C@@H](C)C(=O)N[C@H](C(=O)N[C@@H](CC(C)C)C(=O)N1CCC[C@H]1C(=O)N[C@@H](CC(C)C)C(=O)N[C@@H](C)C(=O)N[C@@H](CC(C)C)C(=O)NCC(=O)N[C@@H](C)C(=O)N[C@@H](CC(C)C)C(=O)N[C@@H](CCCCN)C(=O)N[C@@H](CC(N)=O)C(=O)N[C@@H](CC(C)C)C(=O)N[C@H](C(=O)N[C@@H](CCCCN)C(N)=O)[C@@H](C)CC)[C@@H](C)CC` [Hylin-a1], for which the IC50 came to 3.12 µM in assay [1]; 3.12 µM in assay [2]; 12.5 µM in assay [3] (setting [5]); 6.25 µM in assay [3] (setting [6]); 12.5 µM in assay [4] (setting [7]); 6.25 µM in assay [4] (setting [8]).
Take `CC[C@H](C)[C@H](NC(=O)[C@@H](N)CCCNC(=N)N)C(=O)NCC(=O)N[C@H](C(=O)N[C@@H](CC(C)C)C(=O)N[C@@H](CC(C)C)C(=O)N[C@@H](C)C(=O)N[C@@H](CCCNC(=N)N)C(=O)N[C@@H](CC(C)C)C(=O)N1CCC[C@H]1C(=O)N[C@@H](CCCCN)C(=O)N[C@@H](CC(C)C)C(=O)N[C@@H](Cc1ccccc1)C(=O)N[C@@H](CO)C(=O)N[C@@H](CC(C)C)C(=O)N[C@@H](Cc1ccccc1)C(=O)N[C@@H](CCCCN)C(=O)N[C@@H](CC(C)C)C(=O)N[C@@H](CCSC)C(=O)NCC(=O)N[C@@H](CCCCN)C(=O)N[C@@H](CCCCN)C(=O)N[C@H](C(N)=O)C(C)C)C(C)C` [RV-23]: the IC50 in assay [1] was determined as 0.78 µM; in assay [2], 0.39 µM; in assay [3] (setting [5]), 6.25 µM; in assay [3] (setting [6]), 3.12 µM; in assay [4] (setting [7]), 12.5 µM; in assay [4] (setting [8]), 6.25 µM.
